The values that follow come from paper PMC10017042 (Science Advances, 2023).

The test system of test [1] is HIV-1. As to conditions: before treatment (day 0). Here is the method: Here, the measurement from the cells obtained >1 year after the last visit was used.
The frequency of CD4^+ T cells expressing MS HIV-1 RNA was determined using TILDA with some modifications to the protocol described previously by our group ([68]). Briefly, total CD4^+ T cells were isolated from PBMCs by negative magnetic selection using EasySep CD4^+ Human CD4^+ T Cell Enrichment kit ([…] Technologies). Following isolation, 1.5 × 10^6 CD4^+ T cells/ml were rested in complete RPMI 1640 for 5 to 8 hours before 12 hours of stimulation with PMA (100 ng/ml) and ionomycin (1 μg/ml) (both from Sigma-Aldrich). After stimulation, CD4^+ T cells were washed and resuspended in serum-free RPMI 1640. Cells were counted and serially diluted accordingly: 1.8 × 10^6 cells/ml, 9 × 10^5 cells/ml, 3 × 10^5 cells/ml, and 1 × 10^5 cells/m. […] Positive wells at each dilution were recorded and used to determine the frequency of cells expressing tat/rev MS HIV-1 RNA by the maximum likelihood method.

The test system of test [2] is HIV-1. Here is the method:
Because of low cell numbers in the baseline sample, LUNA-06 (combination arm, participant stopped at day 7) was excluded from this primary end point analysis.
For quantification of CA US HIV-1 RNA, CD4^+ T cells were isolated from peripheral blood mononuclear cells (PBMCs) by negative selection using EasySep Human CD4^+ T Cell Enrichment Cocktail ([…] Technologies). Isolation of CD4^+ T cells was performed on ice or at 4°C (unless indicated otherwise by the manufacturer). Approximately 1.5 × 10^6 CD4^+ T cells were lysed in triplicate with TRI reagent. Total RNA was isolated by the phenol/chloroform isolation method following the manufacturer’s instructions. A minimum of 150 ng of total RNA was deoxyribonuclease (DNase)–treated following the manufacturer’s instructions (DNase I, Amplification Grade, Invitrogen), and complementary DNA (cDNA) synthesis was performed in duplicate with SuperScript II (Invitrogen) following the manufacturer‘s instructions. Absolute quantification of CA US HIV-1 RNA was performed following a modified version of Pasternak et al. methodology ([72]). Briefly, the first round of nested amplification was performed in a final volume of 25 μl using 10 μl of cDNA, 2.5 μl of 10× PCR buffer (Life Technologies), 1 μl of 50 mM MgCl2 (Life Technologies), 1 μl of 10 mM deoxynucleotide triphosphate (dNTP) (Life Technologies), 0.075 μl of 100 μM US forward primer, 0.075 μl of 100 μM US reverse 1 primer, and 0.2 μl of Platinum Taq polymerase (Life Technologies) at 95°C for 5 min, followed by 15 cycles at 95°C for 30 s, 55°C for 30 s, and 72°C for […]. The second round of amplification was performed in a final volume of 25 μl using 2 μl of preamplified cDNA, 2.5 μl of […] PCR buffer (Life Technologies), 1 μl of 50 mM MgCl2 (Life Technologies), 1 μl of 10 mM dNTPs (Life Technologies), 0.05 μl of 100 μM US forward primer, 0.05 μl of 100 μM US reverse 2 primer, 0.0375 μl of US probe, and 0.2 μl of Platinum Taq polymerase (Life Technologies) at 95°C for 5 min, followed by 45 cycles at 95°C for 30 s and 60°C for 1 min. The list of primers and probe is available in table S9. The absolute number of US copies in the PCR was calculated using a standard curve ranging from 2 to 512 copies of a plasmid containing the full-length HIV-1 genome (pNL4.3.Luc.R-E-). […] The quantity of CA US HIV-1 RNA was expressed as the number of copies per 150 ng of input RNA in reverse transcription.
The measurements related to the end points CA US HIV-1 RNA, MS HIV-1 RNA, plasma HIV-1 RNA, and drug plasma levels were described as median with IQR or full range. […] The fold change difference per study arm from pretreatment CA US HIV-1 RNA levels to the time points 6 hours, day 14, and day 42 after first dosing was calculated by adding up the fold change per individual divided by the total number of measurements available per time point. We analyzed the primary end point by a generalized estimating equation model to evaluate whether any difference in the CA US HIV-1 RNA existed at any time point during the trial in any of the three interventional arms compared to the control arm. An interaction term of time and treatment was included. […] The difference between the observed and expected amount of CA US HIV-1 RNA was calculated, and combination therapy was considered synergistic if the difference and its 95% confidence interval were >0. Because of the number of participants in this pilot, all secondary end points were exploratory.

The next test has as its system BAF complex. Put plainly: BAF complex target gene expression (IL-10, SOCS3, CBX7; control B-ACT) by RT-qPCR in participants. Format: in vivo, human. As to conditions: individual participants, one value each, listed as VPA. An excerpt:
We reasoned that the effect on the expression of these gene targets at later time points (days 14 and 42) would be less useful as specific biomarker of BAF complex inhibition due to treatment interruptions and potential induction via other pathways. […] These findings are consistent with, and might be the consequence of, the generally lower plasma pyrimethamine Ctrough in participants that received the combined intervention regimen compared to those that received solely pyrimethamine.
RT-qPCR reactions were conducted using GoTaq qPCR Master Mix (Promega) following the manufacturer’s protocol. The following thermal cycling protocol was used for amplification: 3 min at 95°C, followed by 40 cycles of 95°C for 10 s and 60°C for 30 s. Expression data were calculated using the 2^−∆∆Ct methodology ([73]). Cyclophilin A was used as a housekeeping gene for the analysis. The list of primers is available in table S9.
On the technique in general: Quantitative PCR measures a nucleic acid by following its amplification.

SMILES strings stand for the structures. “And” between values parts separate entries of the source, which are not always exact repeats. Equal entries are not always repeated. Where two headings read alike, the source gives them in different places.

`CCCC(CCC)C(=O)O` [valproic acid]: in the test with HIV-1 [1], the “Median inducible reservoir (TILDA)” value is 14.8 cells per million CD4+ T cells. Besides, the “Mean fold change in CA US HIV-1 RNA” value in the test with HIV-1 [2] (6 hours after first dose, arm mean) worked out at 1.14 fold. Further, the “Median fold change in CA US HIV-1 RNA (normalized to day 0, 0 hours)” value with HIV-1 [2] (day 0, t = 0 hours (pretreatment baseline, normalisation point)) came out at 1 fold; in the test with HIV-1 [2] (day 0, t = 6 hours after first dose, arm median, PLWH on cART, oral PYR 200 mg day 1 then 100 mg once daily, VPA 30 mg/kg per day), 1.0667 fold; with HIV-1 [2] (day 0, t = 6 hours after first dose, arm median, PLWH on cART, oral PYR 200 mg day 1 then 100 mg once daily, VPA 30 mg/kg per day, listed as VPA) it was 1.1 fold; with HIV-1 [2] (day 14 (end of treatment), arm median, PLWH on cART), 1.2401 fold; in the test with HIV-1 [2] (day 42 (28 days after end of treatment), arm median, PLWH on cART), 1.2377 fold. In addition, the “Fold-induction in B-ACTIN gene expression at Day 0, 6 hours relative to Day 0, pretreatment” value in the test with BAF complex (control gene) is 2.5 and 0.94 and 0.9 and 0.69 and 0.61 and 0.68 and 1.12. Besides, the “Fold-induction in CBX7 gene expression at Day 0, 6 hours relative to Day 0, pretreatment” value with BAF complex is 1.16 and 0.9 and 0.54 and 0.23 and 0.87 and 0.82 and 1.71. In addition, in the test on BAF complex, the “Fold-induction in IL-10 gene expression at Day 0, 6 hours relative to Day 0, pretreatment” value is 0.42 and 1.25 and 1.10 and 0.94 and 1.87 and 0.64. Moreover, the “Fold-induction in SOCS3 gene expression at Day 0, 6 hours relative to Day 0, pretreatment” value with BAF complex was 0.38 and 1.92 and 0.53 and 0.85 and 2.47 and 0.67 and 0.52.
